High-throughput results from PubChem.
PglD inh = PglD (C. jejuni) enzyme inhibition; purified PglD enzyme, DTNB colorimetric CoA detection; hit rate 0.098% among 360,000; inhibition, % at 12.5 µM; AID 602405; in the data active means inhibition above about 16%, passing the limit was not always enough
PGC1a acetyl inh = PGC1a acetylation modulation, inhibitor mode | inhibition, % at 15.6 µM | U2OS PGC1a acetylation, AlphaScreen anti-acetyl-lysine; with virally co-expressed GCN5 acetyltransferase | hit rate 0.17% among 350,000;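 active means every replicate shows inhibition of at least 40%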
E-selectin induc = induces E-selectin expression in human endothelial cells; P16581; HUVEC E-selectin immunofluorescence imaging; normalized: neutral wells 0, TNF-alpha wells 100; activation, % at 7.58 µM; hit rate 0.37% among 260,000;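 active means mean E-selectin-positive cell signal at least 10% of the positive control, reached in at least 60% of replicates, without over 20% cell loss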
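Test system: HUVEC; input: 3,000 HUVEC/well; measured by: immunofluorescence imaging; read-out: % PE-positive cells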
Statin myotox sup = suppression of simvastatin myotoxicity; C2C12 myotubes + simvastatin, ATP luminescence, 48 h; scaled: DMSO 0, geranylgeraniol control 100; rescue of ATP level, % at 7.49 µM; hit rate 0.78% among 330,000;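 active means mean ATP rescue above about 67%, or every replicate alone reaching that limit, limit read from the data, passing the limit was not always enough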;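 further: myotubes were challenged with 10 µM simvastatin during compound exposure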
esBAF inh = inhibitors of esBAF chromatin remodeling in mouse ES cells; AID 602393; hit rate 2% among 350,000; Bmi1-luciferase knock-in reporter, 24 h; 100% = twice the neutral-well signal; reporter increase, % at 12.5 µM; in the data active means activation above about 40%;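 further: a rise in the Bmi1 reporter signal indicates esBAF inhibition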
Yeast UUG start-1 = modulators of start codon recognition fidelity in yeast | S. cerevisiae UUG-firefly luciferase reporter, luminescence/redox ratio | activity score, % at 18.7 µM | 350,000 tested, 0.13% active;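 active = replicate mean at a twofold rise or more, about +100% in these data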;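 also: firefly luciferase made from a UUG start codon reports start codon fidelity; reporter light over untreated wells divided by growth signal over untreated wells; some hits fall short of that in this replicate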
Yeast UUG start-2 = yeast start codon fidelity modulation; shares compounds with Yeast UUG start-1; S. cerevisiae UUG-start firefly luciferase, luminescence, 4 h; 100% means double the DMSO signal; activation, % at 38 µM; 540 tested, under 10 active; AID 652061;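 active means signal increase whose fitted curve reaches an absolute level of 40 at a concentration under 10 µM; inactive means activity opposite to the expected increase, or the rest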
Hits are given with their value; - = inactive; . = no result given. In the library only some 2.8% were active in any assay of this set; here they are far more common.

SMILES	PglD inh	PGC1a acetyl inh	E-selectin induc	Statin myotox sup	esBAF inh	Yeast UUG start-1	Yeast UUG start-2
C[C@H]1CN([C@@H](C)CO)S(=O)(=O)c2ccc(C#CC3CC3)cc2O[C@@H]1CN(C)Cc1cccc(F)c1	-	-	.	-	-	-	.
C[C@@H]1CN([C@@H](C)CO)S(=O)(=O)c2ccc(C#CC3CC3)cc2O[C@@H]1CN(C)Cc1cccc(F)c1	-	-	-	-	-	130	-
C[C@H]1CN([C@@H](C)CO)S(=O)(=O)c2ccc(C#Cc3cccc(F)c3)cc2O[C@@H]1CN(C)C	-	-	-	-	-	107	-
C[C@H]1CCCCO[C@@H](CN(C)Cc2ccccc2)[C@@H](C)CN([C@@H](C)CO)C(=O)c2cc(NC(=O)Nc3ccc(C(F)(F)F)cc3)ccc2O1	-	-	-	.	-	-	.
Cc1nn(CC(=O)N2CCN(c3ccccc3)CC2)c(=O)c2ccccc12	-	-	.	-	-	-	-
COc1ccc(N2CCN(C(=O)Cc3nn(C)c(=O)c4ccccc34)CC2)cc1	-	-	.	-	-	-	-
COc1ccc(OC)c(NC(=O)Cc2nn(C)c(=O)c3ccccc23)c1	-	-	.	-	-	-	-
COc1ccc(OC)c(NC(=O)Cn2cc(C(=O)c3ccco3)c3ccccc32)c1	-	-	.	-	-	134	-
COC(=O)[C@H]1[C@H](CO)[C@H]2Cn3c(ccc(-c4ccccc4OC)c3=O)[C@H]2N1C(=O)c1cnccn1	-	.	-	-	-	.	.
Cn1nc(CC(=O)Nc2cccc3ncccc23)c2ccccc2c1=O	-	-	-	-	-	-	-
C[C@@H]1CCCCO[C@@H](CN(C)S(=O)(=O)c2cccs2)[C@H](C)CN([C@@H](C)CO)C(=O)c2cc(NC(=O)c3ccncc3)ccc2O1	-	-	.	.	-	-	.
N/C(=N\S(=O)(=O)c1ccc(Cl)s1)c1ccccc1	-	.	.	-	-	117	-
CCS(=O)(=O)/N=C(\N)c1ccccc1	-	-	.	-	-	-	.
CCCc1cc(=O)[nH]c(SCC(=O)c2cc(C)n(-c3cc(C)on3)c2C)n1	.	-	-	-	-	.	-
Cc1cc(-n2c(C)cc(C(=O)CSc3nc(N)cc(=O)[nH]3)c2C)no1	-	-	-	-	-	-	-
C[C@H](CO)N1C[C@H](C)[C@H](CN(C)CC2CC2)Oc2cc(-c3cccc(C#N)c3)ccc2S1(=O)=O	-	-	-	-	-	.	.
O=C(Cc1ccncc1)NCC[C@@H]1CC[C@@H](NC(=O)Nc2cccc(F)c2)[C@H](CO)O1	-	-	-	-	-	-	.
C[C@H]1CN([C@@H](C)CO)C(=O)c2ccccc2-c2ccccc2CO[C@H]1CN(C)S(=O)(=O)c1ccc([N+](=O)[O-])cc1	.	-	-	.	.	.	.
COc1ccc(OCc2nnc(SCC(=O)NC3CC3)n2C)cc1	-	.	-	-	-	-	.
COc1ccc(C(=O)NCc2nnc(SCC(=O)NC3CCCCC3)n2C)cc1	-	.	.	-	-	349	-
O=C(NCC(F)(F)F)[C@H]1[C@H](CO)[C@H]2Cn3c(cccc3=O)[C@H]2N1C(=O)C1CCC1	-	.	-	-	-	-	.
CCOc1ncccc1C(=O)OCC(=O)Nc1cc(S(=O)(=O)N(CC)CC)ccc1C	.	-	.	.	.	.	.
CCN(CC)S(=O)(=O)c1ccc(C)c(NC(=O)COC(=O)C=C(C)C)c1	-	-	-	-	-	180	-
COc1ccc2oc(C(=O)OCC(=O)Nc3ccccc3)c(C)c2c1	-	-	-	.	.	-	.
COc1ccc2oc(C(=O)OCC(=O)NC(C)c3ccccc3)c(C)c2c1 (stereo not drawn)	-	.	-	.	.	-	-
SMILES	PglD inh	PGC1a acetyl inh	E-selectin induc	Statin myotox sup	esBAF inh	Yeast UUG start-1	Yeast UUG start-2
COc1ccc2oc(C(=O)OCC(=O)NCc3ccc(OC)c(OC)c3)c(C)c2c1	-	-	-	-	-	-	-
COc1ccc2oc(C(=O)OCC(=O)N(C)Cc3ccccc3)c(C)c2c1	-	.	-	-	-	-	-
Cc1noc(C)c1NC(=O)N(C)C[C@H]1OCCCC[C@H](C)Oc2ccc(NC(=O)C3CCCCC3)cc2C(=O)N([C@H](C)CO)C[C@@H]1C	-	-	-	.	-	-	.
CC(C)N(C[C@H]1[C@H](c2ccccc2)[C@H](CO)N1S(C)(=O)=O)C(=O)CN(C)C	-	-	-	-	-	-	.
CC(C)N(C[C@H]1[C@H](c2ccccc2)[C@@H](CO)N1S(C)(=O)=O)C(=O)CN(C)C	-	-	-	-	-	164	-
O=C(Nc1ccc([N+](=O)[O-])cc1)C(=O)Nc1cccc(C(=O)O)c1	-	-	.	-	-	171	-
Cc1noc(C)c1NC(=O)Nc1ccc2c(c1)CC(=O)N([C@@H](C)CO)C[C@@H](C)[C@H](CN(C)S(=O)(=O)c1ccc(F)cc1)O2	-	-	-	-	-	-	.
O=C(Nc1cnc2ccccc2c1)N1CCCCC1	.	-	.	.	.	.	.
O=C(Nc1cnc2ccccc2c1)N1CCOCC1	-	-	.	.	.	105	-
COc1ccc2c3c(n(C)c2c1)[C@@H](CO)N(C(=O)Nc1ccc(F)cc1)CC31CCN(S(=O)(=O)c2cccc(F)c2)CC1	.	.	-	.	.	.	.
C[C@@H]1CCCCO[C@H](CN(C)S(=O)(=O)c2cccs2)[C@@H](C)CN([C@@H](C)CO)C(=O)c2cc(NC(=O)CCC(F)(F)F)ccc2O1	-	-	-	.	-	-	.
CC1CCN(CCCNC(=O)c2cc3c(Cl)nc4ccccc4c3s2)CC1	-	-	-	-	-	-	.
O=C(NCCCN1CCCC1)c1cc2c(Cl)nc3ccccc3c2s1	-	-	-	-	-	486	-
C[C@@H]1CN([C@@H](C)CO)C(=O)c2cccc(NC(=O)NC3CCCCC3)c2O[C@@H]1CN(C)Cc1ccncc1	-	-	-	-	-	-	.
CCN(CCCNc1cc2c(c(N)c1S(=O)(=O)O)C(=O)c1ccccc1C2=O)c1ccccc1	-	.	-	.	.	135	-
C[C@H](CO)N1C[C@H](C)[C@H](CN(C)C(=O)C2CCOCC2)Oc2cc(C#Cc3ccncc3)ccc2S1(=O)=O	-	-	-	-	-	191	-
CNC[C@H]1Oc2cc(C#Cc3ccncc3)ccc2S(=O)(=O)N([C@H](C)CO)C[C@H]1C	-	-	-	-	-	129	-
CC(=O)N(C)C[C@H]1Oc2cc(-c3cncnc3)ccc2S(=O)(=O)N([C@H](C)CO)C[C@@H]1C	-	-	-	-	-	-	.
CC(C)NC(=O)N(C)C[C@@H]1OCCCC[C@H](C)Oc2ccc(NC(=O)CCC(F)(F)F)cc2C(=O)N([C@@H](C)CO)C[C@@H]1C	-	-	-	.	.	.	.
CN(C)C(=O)C[C@H]1C[C@H]2c3cc(NC(=O)Nc4ccccc4F)ccc3O[C@H]2[C@H](CO)O1	-	-	-	-	-	-	.
